Literature values, collected in paper PMC10892142, “Synthesis and In Vitro Antitumor Activity Evaluation of Gefitinib-1,2,3-Triazole Derivatives” (Molecules, 2024).

System: advanced NSCLC with EGFR mutations
Parameters: method as in PMID 17047648
Conditions: 16 patients, first-line treatment; cited from earlier work

## COc1cc2ncnc(Nc3ccc(F)c(Cl)c3)c2cc1OCCCN1CCOCC1 [Gefitinib, gefitinib]
  response rate: 75%
